The nature of this series: Molecular assays (HPLC, mass spectrometry, isoelectric focusing, immunoassay) of recovered aerosol versus initial formulation. The class given is physicochemical. The following applies: FSH 150 ng/mL. On the procedure:
Proteins were tested with a transgenic cell bioassays with receptors introduced to the cells specific to the test protein. These bioassays were appropriate for indicating the functional effectiveness of the protein. Molecular assays were performed to indicate the primary or tertiary structure of the molecule. Assays used included size exclusion high performance liquid chromatography, reverse phase high performance liquid chromatography, mass spectrometry, isoelectric focusing and immunoassay.
Each protein was formulated at a concentration that was calculated to be of clinical significance such that the plume of aerosol contained the required amount of therapeutic. Humectant was added to the protein formulation which was filled into an inkjet cartridge and fired from the cartridge.
Resistor surfaces and nozzles were inspected by Scanning Electron Microscopy to establish the cleanliness of the surfaces and subsequently the effectiveness of the humectant and surfactant. When humectant and surfactant concentrations were suitable, the aerosol from the device was collected, analyzed, and compared with the solution before aerosolization.
During testing, it was useful to ensure that the composition of the aerosol emanating from the device was the same in all discernable aspects as the formulation filled into the device. […]

Results on one substance are retold here after US20090022669A1, “COMPOSITIONS FOR PROTEIN DELIVERY VIA THE PULMONARY ROUTE” (VAPOTRONICS, INC., priority 2001, published 2009).

For the substance follicle stimulating hormone, the “mass spectrometry, HPLC, isoelectric focussing and immunoassay comparison of recovered aerosol and initial formulation” value is reported as “no difference”.
